US9314525B2, “Picropodophyllin polymorph C and its use in cancer therapy” (Axelar AB, priority 2010, dated 2016)

Test: Powder dissolution profiling (intrinsic dissolution rate and apparent solubility) in PhB 6.5 and FeSSIF pH 6.5
Settings: for IDR assay 1 / IDR assay 2: triplicate; for IDR assay 1 + 2: assays 1 and 2 combined
Description: Phosphate buffer pH 6.5 (PhB 6.5) was prepared according to a protocol by Galia and co-workers (Galia, E., et al. Evaluation of various dissolution media for predicting in vivo performance of class I and II drugs. Pharm Res 15, pp. 698-705 (1998)). Briefly, 1000 mL of […] Na2HPO4 buffer pH 6.5 was prepared by dissolving 3.95 g Na2HPO4xH2O, 6.19 g NaCl and 0.42 g NaOH in a volumetric flask by adding purified water. The pH was adjusted to pH to 6.5 by titration with 0.5 M NaOH and the volume was adjusted to 1000 mL with purified water. This buffer was sterile filtered and thereafter stored in refrigerator. Fed state simulated intestinal fluid (FeSSIF pH 6.5) was prepared fresh on the day of the experiment by dissolving 1.12 g of Na-taurocholate/lecithin powder (ePhares, Switzerland) in 100 mL PhB ((Galia, E., et al. Evaluation of various dissolution media for predicting in vivo performance of class I and II drugs. Pharm Res 15, pp. 698-705 (1998)). The media was stirred and preheated to 37±1° C. resulting in clear solution of pH 6.5 which contained a mixed micelle system of 15 mM taurocholate and 3.75 mM lecithin.
Dissolution rate and apparent solubility was measured with the pDISS Profiler™ (pION INC, MA, USA) from 0.3-1.3 mg compound weighed into the vial to which the preheated (37° C.) dissolution medium was added. […] Each UV probe was calibrated with its own standard curve prior to the experiment. The obtained results were analysed with the software accompanying the pDISS equipment.
The detailed procedure of the powder dissolution experiments, including the theoretical background, can be found in Avdeef, A., Tsinman, K., Tsinman, O., Sun, N. & Voloboy, D. Miniaturization of powder dissolution measurement and estimation of particle size. Chem Biodivers 6, 1796-1811 (2009); in Fagerberg, J. H., et al. Dissolution Rate and Apparent Solubility of Poorly Soluble Drugs in Biorelevant Dissolution Media. Mol Pharm 7, 1419-1430, (2010); and in Tsinman, K., Avdeef, A., Tsinman, O. & Voloboy, D. Powder dissolution method for estimating rotating disk intrinsic dissolution rates of low solubility drugs. Pharm Res 26, 2093-2100 (2009).

SMILES | IDR assay 1 (FeSSIF pH 6.5, 37° C., assay time polymorph B 16 hours, polymorph C 1.3 hours, listed as B) [μg/min/cm^2] | IDR assay 1 (PhB 6.5, 37° C., assay time polymorph B 19 hours, polymorph C 1.7 hours, mean ± SD, listed as B) [μg/min/cm^2] | IDR assay 2 (FeSSIF pH 6.5, 37° C., assay time 25 hours) [μg/min/cm^2] | IDR assay 1 (FeSSIF pH 6.5, 37° C., assay time polymorph B 16 hours, polymorph C 1.3 hours, listed as C) [μg/min/cm^2] | IDR assay 1 + 2 (FeSSIF pH 6.5, 37° C.) [μg/min/cm^2] | IDR assay 2 (PhB 6.5, 37° C., assay time 29 hours (value obtained after 50 minutes), mean ± SD) [μg/min/cm^2] | IDR assay 1 (PhB 6.5, 37° C., assay time polymorph B 19 hours, polymorph C 1.7 hours, mean ± SD, listed as C) [μg/min/cm^2] | IDR assay 1 + 2 (PhB 6.5, 37° C., mean ± SD) [μg/min/cm^2]
COc1cc([C@@H]2c3cc4c(cc3[C@H](O)[C@H]3COC(=O)[C@@H]23)OCO4)cc(OC)c1OC [polymorph B, picropodophyllin] | 2.45 ± 0.05 | 1.12 ± 0.02 | – | – | – | – | – | –
COc1cc([C@@H]2c3cc4c(cc3[C@H](O)[C@H]3COC(=O)[C@@H]23)OCO4)cc(OC)c1OC [polymorph C, picropodophyllin] | – | – | 1.29 ± 0.09 | 1.24 ± 0.02 | 1.23 ± 0.11 | 0.56 ± 0.05 | 0.57 ± 0.03 | 0.57 ± 0.03
